Screening data as filed in PubChem.
Shown are actives, neighbours in structure and some others; about 1.3% of the full set was active somewhere.
ERG-DNA inh = inhibitors of human ERG Ets domain-DNA interaction. P11308. fluorescence polarization, His-ERG Ets domain / labelled DNA. Potency, µM (titrated, usually from 76.9 µM), for inactives: top-dose FP activity, negative = inhibition, usual class: inhibitors. actives 0.028% (n = 370,000). AID 624246; active = well fitted inhibition curve with a large enough effect in the polarisation, with a control signal flat; inconclusive = small, poorly fitted or top-dose-only effect, or effect the other way, or a change in a side signal; inactive = no such curve, though single readings can be large or run the other way; the % refers to the polarisation;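 also: polarization taken with two DNA probes labelled with fluorescein and Texas red; potency is read from the fitted curve at half-maximal effect; % of control where 0% means no effect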
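His-tagged ERG Ets domain (1 uM in the protein solution; 300mM KCl, 50mM Tris-HCl, 1mM EDTA, 1mM DTT, pH 7.5) received compound, then a probe mix of 5 nM fluorescein-DNA and 100nM Texas-615-DNA. Fluorescence polarization was read for both dyes.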
12-LOX inh = blocks human arachidonate 12S-lipoxygenase. actives 1.1% (n = 580,000). purified 12hLO, xylenol orange hydroperoxide absorbance. Potency, µM (highest dose often 108 µM), for the others: at the highest dose activity change, negative = inhibition, actives largely listed as inhibitors. P18054. AID 1671190; also: potency is read from the fitted curve at half-maximal effect; % is scaled to controls: 0 for no effect and ±100 for the full control effect
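Purified human 12hLO at 150 nM in 25 mM Hepes, 0.01% Triton X-100, pH 7.0, preincubated 15 min at room temperature with compound. Reaction started with 40 uM arachidonic acid, 30 min at room temperature. Hydroperoxide measured by Fe-xylenol orange, 573/405 nm absorbance ratio.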
PINK1 expr mod = PINK1 expression modulation; actives 0.2% (n = 410,000); Potency, µM (highest dose often 76.6 µM), without a hit: top-dose activation (PINK1 increase), actives largely listed as activators; PINK1 immunofluorescence, high-content cytometry, 24 h; AID 624263; active = well fitted activation curve with a large enough effect; inconclusive = small, poorly fitted or top-dose-only effect; cell line not stated here; also: potency is read from the fitted curve at half-maximal effect; % of control where 0% means no effect; nearly all actives have a fitted effect of over 65% in size
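Fluorescence from anti-PINK1 antibody, together with nuclear and cell stains, was scanned on a laser-scanning cytometer. Before staining, stable-line cells were incubated 24 hours with compounds at 5 concentrations; primary antibody 12 h at 10 degrees C.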
PTHR1 ag = PTHR1 (human) receptor agonism; Q03431; HEK293 GP2 PTHR1 cells, GloSensor cAMP luminescence, 1 h; Potency, µM (top dose mostly 115 µM), for inactives: at the highest dose activation, hits mostly activators; actives 0.075% (n = 410,000); also: potency is read from the fitted curve at half-maximal effect; nearly all actives have a fitted effect of over 55% in size
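HEK-293-derived GP2 cells expressing PTHR1 and a GloSensor cAMP reporter, 3,000/well, plated overnight, given luciferin plus IBMX (each 0.5 mM as added) for 1 h at 37 °C, then compound for 1 h at 37 °C. Luminescence was read after 15 min at room temperature.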
miR-21 reporter = raises the signal of a miR-21 reporter; AID 2288; 340,000 tested, under 10 active; Potency, µM (doses to about 38.3 µM), inactives show at the top dose reporter change, positive = more light; HeLa miR-21 FLuc reporter, luciferase, 48 h; active = well fitted rising curve with a large enough effect; inconclusive = small, poorly fitted or top-dose-only effect; inactive = no such curve, though single readings can be large or run the other way;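 note: % of control where 0% means no effect; miR-21 action dims this reporter so a rising signal means less miR-21 action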
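HeLa miR-21-FLuc reporter line, endogenous miR-21; 2000 cells/well in DMEM/10% FBS; compound titration up to ~40uM final, 48 h, 37 degree Celsius; luciferase detection reagent, 15 min lysis, CCD luminescence.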
Giardia killer = Giardia lamblia killing; Giardia lamblia trophozoite viability; activity change, % at 7.66 µM, hits read low; actives 0.15% (n = 340,000); in the data active = activity change below about -80%; inconclusive = between about -30% and that limit;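 also: parasites exposed to compound for two days anaerobically before the ATP read; % is scaled to controls: 0 for no effect and ±100 for the full control effect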
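Each well holds 100 Giardia trophozoites and compound. After two days (48 hrs) at 37 deg C in anaerobic conditions, ATP is quantified by luminescence.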
* hit, by the source's call; i = inactive; ? = inconclusive; . = no result given; [ ] = dose if it differs, or a comment. Unless noted, calls follow the shape of the dose curve; as a rule, active = well fitted curve in the direction sought with a large enough effect; inconclusive = small, poorly fitted or top-dose-only effect, or another doubt; inactive = no such curve, though single readings can be large; an effect the other way counts as inactive or inconclusive.

[1] COc1ccc(C2(C(=O)NC3CCCc4c3[nH]c3ccccc43)CCOCC2)cc1 (stereo not given)
[2] N#CC1=C(N)OC2=C(C(=O)CC(c3ccccc3)C2)C1c1ccc(Br)cc1 (stereo not given)
[3] N#CC1=C(N)OC2=C(C(=O)CC(c3ccccc3)C2)C1c1cccc(F)c1 (stereo not given)
[4] Cc1ccc(C2CC(=O)C3=C(C2)OC(N)=C(C#N)C3c2ccc(Cl)c(Cl)c2)cc1 (stereo not given)
[5] CN(C(=O)Cn1c(=O)n(Cc2ccc(C(=O)NCc3ccc4c(c3)OCO4)cc2)c(=O)c2ccccc21)c1ccccc1
[6] c1ccc(-n2cc(CN3CCCCC3c3ccccn3)nn2)cc1 (stereo not given)
[7] Cc1noc(C)c1C1CCCN1Cc1cn(-c2ccccc2)nn1 (stereo not given)
[8] Cc1ccc(Cl)cc1N1CCN(C(=O)c2noc3c2CCCC3)CC1
[9] COc1ccc([C@H]2C[C@@H](O)[C@@H](O)[C@@H]2NCc2cn(C)c3ccccc23)cc1
[10] COc1cc2c(cc1NC(=O)COc1ccccc1OC)oc1ccccc12
Assay by compound	1	2	3	4	5	6	7	8	9	10
ERG-DNA inh	.	.	.	.	1%	.	.	-3%	.	-11%
12-LOX inh	35µM*	11µM*	35µM*	40µM*	-19%	20µM*	14%	-3%	40µM*	-2%
PINK1 expr mod	.	.	.	.	0%	.	.	18%	.	14µM*
PTHR1 ag	.	.	.	.	-21%	.	.	-76%	.	-12%[57.5 µM]
miR-21 reporter	.	.	.	.	25%	.	.	?	.	-4%
Giardia killer	.	.	.	.	.	.	.	.	.	11

[11] O=C(COc1ccc(Cl)cc1)Nc1cc2c3c(c1)CC(=O)N3CCC2
[12] CCOc1ccc(NC(=O)c2c(NCc3cccnc3)sc3c2CCC(C)C3)cc1 (stereo not given)
[13] CCOc1ccc(NC(=O)c2c(NCc3cccs3)sc3c2CCC(C)C3)cc1 (stereo not given)
[14] O=C(Cc1ccccc1)N1CCCC(c2nn(-c3ccc(Cl)cc3)c(=O)[nH]2)C1 (stereo not given)
[15] O=C(Cc1ccc(F)cc1)N1CCC(c2nn(-c3ccc(Cl)cc3)c(=O)[nH]2)CC1
[16] O=C(Cc1ccc(Cl)cc1)N1CCC(c2n[nH]c(=O)n2Cc2ccc(F)cc2)CC1
[17] Cc1ccc(CN2CCCC(c3nn(-c4ccc(Cl)cc4)c(=O)[nH]3)C2)cc1 (stereo not given)
[18] COc1ccc(Cn2c(C3CCN(C(=O)Cc4ccc(F)cc4)CC3)n[nH]c2=O)cc1
[19] COc1ccc(NC(=O)CSc2nc3ccccc3c(=O)n2-c2ccc3c(c2)OCO3)c(OC)c1
[20] COc1cccc(NC(=O)C2(C)CCN2CC2CCCCC2)c1 (stereo not given)
Assay by compound	11	12	13	14	15	16	17	18	19	20
ERG-DNA inh	-6%	-14%	-1%	.	.	.	.	.	-2%	.
12-LOX inh	-9%	40µM*	0%	32µM*	28µM*	14µM*	18µM*	22%	-7%	-6%
PINK1 expr mod	3%	1%	2%	.	.	.	.	.	0%	0%
PTHR1 ag	-57%	i	i	.	.	.	.	.	i	i
miR-21 reporter	.	1%	1%	.	.	.	.	.	-3%	.
Giardia killer	2	.	.	.	.	.	.	.	6	.

[21] C#CCN1CC(N2CCN(CCO)CC2)CS1(=O)=O (stereo not given)
[22] O=C(Nc1ccc(Cl)cc1)N1CCC(c2nn(-c3ccc(Cl)cc3)c(=O)[nH]2)CC1
[23] CC(C)(C)C(=O)N1CCC(c2nn(-c3ccc(Cl)cc3)c(=O)[nH]2)CC1
[24] CCCNc1nc(-c2ccc3[nH]c(=O)oc3c2)cs1
[25] c1ccc(-c2csc(NC3CCCCC3)n2)cc1
[26] O=c1[nH]c2ccc(-c3csc(NC4CCCC4)n3)cc2o1
[27] COc1cccc(NC(=O)C(=S)NC2CCCCC2)c1
[28] O=c1ccc(N=Nc2ccccc2)ccc1O
[29] O=S(=O)(O)c1ccc(N=Nc2ccccc2)cc1
[30] Cc1cc(Br)cnc1NC(=S)Nc1ccc(F)cc1F
Assay by compound	21	22	23	24	25	26	27	28	29	30
ERG-DNA inh	.	.	.	.	-1%	.	-3%	1%	8%	10%
12-LOX inh	6%	13µM*	3%	13µM*	?	6.3µM*	0%	45µM*	-26%	14µM*
PINK1 expr mod	.	.	.	.	7%	.	17%	?	0%	?
PTHR1 ag	.	.	.	.	-22%	.	-42%	-64%	9%	-26%
miR-21 reporter	.	.	.	.	-51%	.	-55%	8%	-3%	-15%
Giardia killer	.	.	.	.	-3	.	3	3	-8	-13

[31] CC(=O)NNC(=S)Nc1ccc(F)cc1F
[32] CCN(CC)C(=O)CC(c1cc(OC)c(OC)c(OC)c1)c1c(OC)cc(OC)c2c(-c3ccccc3)cc(=O)oc12 (stereo not given)
[33] C#CCCCN([C@@H](CC(C)C)C(=O)OC)S(=O)(=O)c1ccc(F)cc1Br
[34] C=CCOc1ccc(C(c2c(C(=O)O)[nH]c3ccccc23)c2c(C(=O)O)[nH]c3ccccc23)cc1
[35] COc1cc(C(c2c(C(=O)O)[nH]c3ccccc23)c2c(C(=O)O)[nH]c3ccccc23)ccc1OCc1ccccc1
[36] O=C(O)c1[nH]c2ccccc2c1C(c1ccccc1)c1c(C(=O)O)[nH]c2ccccc12
[37] O=S(=O)(Cc1ccccc1)NCc1cccc(CNS(=O)(=O)Cc2ccccc2)c1
[38] N#Cc1cccc(CNS(=O)(=O)Cc2ccccc2)c1
[39] CCOc1ccc(CNS(=O)(=O)c2c(C(=O)N3CCCCCC3)c(C)n(C)c2C)cc1OC
[40] COc1ccc(S(=O)(=O)N2CCc3ccccc32)cc1C(=O)N1CCN(c2ncccn2)CC1
Assay by compound	31	32	33	34	35	36	37	38	39	40
ERG-DNA inh	.	5%	.	35µM*	2%	4%	.	.	8%	.
12-LOX inh	33%	40µM*	-2%	28µM*	28µM*	6%	35µM*	14%	0%	40µM*
PINK1 expr mod	.	3%	.	11%	8%	1%	.	.	0%	.
PTHR1 ag	.	24%	.	i	i	-24%	.	.	i	.
miR-21 reporter	.	-13%	.	1%	1%	-2%	.	.	-10%	.
Giardia killer	.	1	.	5	-10	-14	.	.	.	.

[41] COc1ccc(S(=O)(=O)N2CCc3ccccc32)cc1C(=O)N1CCN(C=O)CC1
[42] NS(=O)(=O)c1ccc(-c2ccc(/C=N/NC(=O)c3ccc([N+](=O)[O-])cc3)o2)cc1
[43] CCCCC(=O)N/N=C/c1ccc(-c2ccc([N+](=O)[O-])cc2)o1
[44] C=CCNC(=S)N/N=C/c1ccc(-c2ccc(OC)cc2)o1
[45] CC(C)(C)NC(=S)N/N=C\c1ccc(-c2ccc([N+](=O)[O-])cc2)o1
[46] CCC(=O)N/N=C/c1ccc(-c2ccc([N+](=O)[O-])cc2)o1
[47] Cc1cccc(-n2ccc(=O)c(C(=O)Nc3ccc(S(=O)(=O)N4CCOCC4)cc3)n2)c1
Assay by compound	41	42	43	44	45	46	47
ERG-DNA inh	-6%	-5%	6%	-4%	1%	-8%	3%
12-LOX inh	-11%	-4%	-10%	40µM*	45µM*	?	4%
PINK1 expr mod	2%	40µM*	8%	-2%	10%	-2%	5%
PTHR1 ag	-25%	i	-48%	-28%	-30%	i	0%
miR-21 reporter	.	0%	-3%	12%	-25%	1%	-1%
Giardia killer	-4	-10	-2	37	-28	22	-3

Compound profiles (already shown):
CCCCC(=O)N/N=C/c1ccc(-c2ccc([N+](=O)[O-])cc2)o1 as listed: ERG-DNA inh = 6%; 12-LOX inh = -10%; PINK1 expr mod = 8%; PTHR1 ag = -48%; miR-21 reporter = -3%; Giardia killer = -2
Cc1cccc(-n2ccc(=O)c(C(=O)Nc3ccc(S(=O)(=O)N4CCOCC4)cc3)n2)c1 as listed: ERG-DNA inh = 3%; 12-LOX inh = 4%; PINK1 expr mod = 5%; PTHR1 ag = 0%; miR-21 reporter = -1%; Giardia killer = -3

Of the compounds above, two contain a thiophene ring, fused or not.
[12] CCOc1ccc(NC(=O)c2c(NCc3cccnc3)sc3c2CCC(C)C3)cc1 (stereo not given)
[13] CCOc1ccc(NC(=O)c2c(NCc3cccs3)sc3c2CCC(C)C3)cc1 (stereo not given)
Assay by compound	12	13
ERG-DNA inh	-14%	-1%
12-LOX inh	40µM*	0%
PINK1 expr mod	1%	2%
PTHR1 ag	i	i
miR-21 reporter	1%	1%
Giardia killer	.	.
